For one substance, Km results are on record in publication PMC12427885 (Foods, 2025).

The series concerns NCCc1c[nH]cn1. Kind of series: purified protein. To be noted: apparent, 25 mM potassium phosphate pH 6.8, 37 °C, 0.05-3.1 mM histamine, partially purified enzyme.

On to DAO-GH (Glutamicibacter halophytocola), for which the Km is 900 ± 70 µM.
